Results on one molecule are retold here after patent publication US20080131419A1 (YISSUM RESEARCH DEVELOPMENT COMPANY OF THE HEBREW …, published 2008).

This assay concerns the target rabbit muscle actin polymerized to filamentous (F-) actin (rabbit, UniProt P68135 3-377). In words: co-sedimentation of 1-33 uM RNase B1 with 30 uM F-actin, RNase activity of the supernatant, Scatchard analysis. The procedure: The interaction between RNase B1 and actin was quantified as modified from Simm (Simm, F. C. et al., 1987. Eur. J. Biochem. 166:49-54). Rabbit muscle globu(G-) actin (Sigma Co.) was polymerized to filamentous (F—) actin in Buffer F (10 mM Tris pH 8, 0.1 mM ATP, 0.2 mM CaCl₂, 0.1 M KCL and 2 mM MgCl₂) for 30 minutes at room temperature. Samples of 50 μl containing each 30 μM F-actin were incubated overnight at 4° C. with 1-33 μM RNase B1. As a control, each concentration of RNase was incubated with buffer F alone. The samples were centrifuged at 15,000 g for 40 minutes and RNase activity of the supernatant was determined (Roiz, L., Goren, R. and Shoseyov, 0.1995, Physiol. Plant. 94:585-590.).
The interaction between RNase B1 and actin was quantified using Scatchard analysis.

B1: Aspergillus niger B1 extracellular RNase (RNase B1) (enzyme)
chain: TIDTCSSDSPLSCQTDNEASCCFNSPGGSLLQTQFWDYDPSDGPSGSWTIHGLWPDNCDGTYQEYCDESREYSNITSILEAQNRTELLSYMKEYWPDYEGADEDESFWEHEWNKHGTCINTIEPSCYTDYYAQEEVGDFFQQVVDLFKTLDSYTALSDAGITPSEDATYKLSDIEDALAAIHDGYPPYVGCEDGALSQLYYYFNVKGSAIGGTYVASERLEDSNCKDSGIKYPPKYSSSKKIYGSSL
modifications: glycoprotein (32- and 40-kDa glycoforms sharing a 29-kDa protein core)
notes: Native protein purified from A. niger B1 culture filtrate (EMD-TMAE and MONO-Q columns); also called A. niger T2 RNase; B1 RNase
In the case of B1, the “RNase:actin molar ratio” value was found to be 0.45 mol RNase per mol actin.
